PubChem BioAssay AID1515 (The Scripps Research Institute Molecular Screening Center, 2009)
Values joined by “and” are separate entries in the source; they are usually repeats but may differ in a detail not shown here. Equal entries are not always repeated. Only a part is listed here, and it is no random draw. Active and inactive are the calls of the source.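 Rule for the calls: active = inhibition above the campaign mean of all tested compounds plus 3 SD (cut at about 14% in these data); inactive = the rest.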

Protein sequences, listed by entry. Tags and fused reporters are not part of them. Lines headed by an entry give the natural chain unless they say otherwise; changes in a name come on top.
UniProt O75884: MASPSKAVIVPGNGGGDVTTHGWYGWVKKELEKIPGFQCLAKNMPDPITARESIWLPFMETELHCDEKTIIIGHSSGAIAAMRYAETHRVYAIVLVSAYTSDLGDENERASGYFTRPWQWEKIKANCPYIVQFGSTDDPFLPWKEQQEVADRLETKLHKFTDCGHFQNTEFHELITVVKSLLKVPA

biological target: Serine hydrolase RBBP9 (Homo sapiens) (UniProt O75884); assay: human RBBP9 inhibitors, primary screen, biochemical, fluorescence polarization, FP-Rh probe, HTS (AID 1515); conditions: recombinant RBBP9, FP-Rh probe fluorescence polarization; at 7.94 µM; hits give high values;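 note: plate controls were DMSO wells with RBBP9 for no effect and wells lacking RBBP9 protein for full effect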

Row | Compound | inhibition
1 | CN(C)C(=O)Oc1noc2ccccc12 | inactive: 13.7%
2 | O=c1c2cc([N+](=O)[O-])ccc2[nH]c2c([N+](=O)[O-])cc([N+](=O)[O-])cc12 | inactive: -0.56%
3 | Cc1ccccc1OP(=O)(Nc1ccccn1)Oc1ccccc1C | inactive: -8.05%
4 | CCC(=O)N1C2C3N(C(=O)CC)C1C1N(C(=O)CC)C(C(N1C(=O)CC)N3C(=O)CC)N2C(=O)CC | inactive: -11.8%
5 | CC(=O)NC(SC(=S)N(CC(C)C)CC(C)C)C(Cl)(Cl)Cl (stereo unspecified) | inactive: -5.11%
6 | Cc1ccc(OP(=O)(Nc2ccccn2)Oc2ccc(C)cc2)cc1 | inactive: -0.28%
7 | COC(=O)c1cc2c(s1)N=C(c1ccccc1)N(C)P2(=O)N1CCOCC1 (stereo unspecified) | inactive: -1.09%
8 | Cc1ccc(NP(=O)(Oc2cccc(C)c2)Oc2cccc(C)c2)nc1 | inactive: -2.39%
9 | CCOC(=O)NC(Sc1ccccc1)C(Cl)(Cl)Cl (stereo unspecified) | inactive: -1.11%
10 | c1ccc(-c2nn[nH]n2)c(-c2nn[nH]n2)c1 | inactive: 7.54%
11 | CCNC(=S)/N=C(\N)N[N+](=O)[O-] | inactive: -4.63%
12 | O=C(NC1CCS(=O)(=O)C1)NP(=S)(Oc1ccccc1)Oc1ccccc1 (stereo unspecified) | inactive: -4.28%
13 | CC(=O)Nc1ccc(Oc2c([N+](=O)[O-])cc([N+](=O)[O-])cc2[N+](=O)[O-])cc1 | inactive: -9.21%
14 | CC(=O)Nc1ccc([As](=O)(O)O)c(O)c1 | inactive: -0.26%
15 | CC(C)(C)C(=O)NC(Sc1ccccc1)C(Cl)(Cl)Cl (stereo unspecified) | inactive: 6.22%
16 | CCOc1ccc(C2=NCC(CBr)S2)cc1 (stereo unspecified) | inactive: -0.28%
17 | O=P1(Nc2nc3ccc(Cl)cc3s2)COc2ccccc2O1 (stereo unspecified) | inactive: 0.9%
18 | c1nnnn1CCn1cnnn1 | inactive: -7.49%
19 | CC(C)C(=O)NC(Sc1ccccc1)C(Cl)(Cl)Cl (stereo unspecified) | inactive: -5.01%
20 | O=P(Nc1nccs1)(c1ccccc1)c1ccccc1 | inactive: -0.1%
21 | O=C(OC1CN2CCC1CC2)c1cccc(Cl)c1 (stereo unspecified) | inactive: -7.01%
22 | Nc1ccc([As](=O)(O)c2ccc([N+](=O)[O-])cc2)cc1 | inactive: -3.66%
23 | C(Cc1nn[nH]n1)Cc1nn[nH]n1 | inactive: -3.23%
24 | O=[As](O)(c1ccccc1)c1ccc(O)cc1 | inactive: -13.4%
25 | CC(=O)NC(SC(=S)N(C)C)C(Cl)(Cl)Cl (stereo unspecified) | inactive: -9.38%
26 | O=[N+]([O-])c1ncn(CCn2cnc([N+](=O)[O-])n2)n1 | inactive: -2.19%

Row | Compound | inhibition
27 | O=P(Nc1nc2ccccc2s1)(c1ccccc1)c1ccccc1 | inactive: -6.42%
28 | O=P(Nc1ccccn1)(c1ccc(Br)cc1)c1ccc(Br)cc1 | inactive: 1.27%
29 | O=C(O)CNc1ccc([As](=O)(O)O)cc1 | inactive: 4.24%
30 | O=[N+]([O-])c1cccc(NC2=NCC(CBr)S2)c1 (stereo unspecified) | inactive: -8.5%
31 | O=[N+]([O-])c1ncn(CCn2ncnc2[N+](=O)[O-])n1 | inactive: -4.11%
32 | CC(C)(C)C(=O)NC(Sc1ccncn1)C(Cl)(Cl)Cl (stereo unspecified) | inactive: -7.31%
33 | O=C(Nc1cc([As](=O)(O)O)ccc1O)c1ccccc1 | inactive: 6.01%
34 | CC1CCN(C(=O)Oc2c(Cl)cc(Cl)c3cccnc23)CC1 | inactive: -1.38%
35 | CN(C)C(=O)OCCc1n(C)cc[n+]1C | inactive: -5.34%
36 | CC(C)=N/N=C(\N)N[N+](=O)[O-] | inactive: 2.66%
37 | CCN(/C(=N/P(=O)(N1CCOCC1)N1CCOCC1)N1CCOCC1)c1ccc(OC)cc1 | inactive: -4.92%
38 | C[N+]1=C2C=CC=CC=C2SC12C([N+](=O)[O-])=CC([N+](=O)[O-])=C[C-]2[N+](=O)[O-] (stereo unspecified) | inactive: -2.31%
39 | Nc1ccc([As](=O)(O)c2ccc(N)cc2)cc1 | inactive: -0.12%
40 | CCc1nc2c(n1)c1c(non1O)c1c2no[n+]1[O-] | inactive: 3.69%
41 | O=[N+]([O-])c1cc([N+](=O)[O-])c(CCNc2ccccc2)c([N+](=O)[O-])c1 | active: 34.3%
42 | Cc1ccc(NP(=O)(Oc2ccccc2)Oc2ccccc2)nc1 | inactive: -3.97%
43 | O=[N+]([O-])c1cccc2n[nH]nc12 | inactive: -4.62%
44 | CC(=O)N1C2C3N(C(C)=O)C1C1N(C(C)=O)C(C(N1C(C)=O)N3C(C)=O)N2C(C)=O | inactive: -5.09%
45 | COc1ccc(C2=NCC(CBr)S2)cc1 (stereo unspecified) | inactive: 6.69%
46 | Cc1c2non([O-])c-2c(C)[n+](=O)[n+]1[O-] | inactive: -4.01%
47 | O=C(NC(Sc1ccncn1)C(Cl)(Cl)Cl)c1ccccc1 (stereo unspecified) | inactive: -11%
48 | Oc1ccccc1CNc1ccccn1 | inactive: -2.75%
49 | CC(C)CC(=O)NC(Sc1ccc(Cl)cc1)C(Cl)(Cl)Cl (stereo unspecified) | inactive: -9.04%
50 | Nc1cc(N)c2nonc2c1[N+](=O)[O-] | inactive: -9.17%
51 | Clc1ccc(Cl)c(NC2=NCC(CBr)S2)c1 (stereo unspecified) | inactive: -3.58%
52 | CN1CCCC(OC(=O)C(c2ccccc2)c2ccccc2)C1 (stereo unspecified) | inactive: -4.77%

Row | Compound | inhibition
53 | Cc1ccc(OP(=O)(Nc2nccs2)Oc2ccc(C)cc2)cc1 | inactive: 1.57%
54 | COc1ccccc1OP(=O)(Nc1ccc(C)cn1)Oc1ccccc1OC | inactive: 1.34%
55 | Cc1ccc(N/C(=N/P(=O)(N2CCOCC2)N2CCOCC2)N2CCOCC2)cc1 | inactive: -2.4%
56 | NC(=O)c1cc([N+](=O)[O-])cc([N+](=O)[O-])c1N | inactive: -1.7%
57 | Nc1cccc2ccc([As](=O)(O)O)cc12 | inactive: -2.34%
58 | CCN(N=Nc1nonc1N)c1nonc1N | inactive: -7.53%
59 | Cc1ccc(NP(=O)(Oc2ccccc2F)Oc2ccccc2F)nc1 | inactive: -5.97%
60 | CCOP(=O)(Nc1ccccc1)OCC | inactive: -7.87% and inactive: -2.82%
61 | Cc1cc(SC(NC(=O)c2ccc(F)cc2)C(Cl)(Cl)Cl)ncn1 (stereo unspecified) | inactive: -1.59%
62 | O=P(Nc1nc2ccc(Cl)cc2s1)(c1ccccc1)c1ccccc1 | inactive: -11.6%
63 | O=C(O)c1ccccc1[As](=O)(O)O | inactive: -3.32%
64 | CC(=O)Nc1ccc([As](=O)(O)O)cc1 | inactive: -5.34%
65 | O=[N+]([O-])c1cc([N+](=O)[O-])c(-c2ccn[nH]2)s1 | inactive: 0.55%
66 | CCN(CC)C(=S)SC(NC=O)C(Cl)(Cl)Cl (stereo unspecified) | inactive: -7.53%
67 | CC(C)NC(=O)NP(=O)(Oc1ccccc1)Oc1ccccc1 | inactive: -3.23%
68 | ClCCSc1nnc(-c2cccnc2)o1 | inactive: 6.91%
69 | CC(C)c1ccc(OP(=O)(Nc2ccccn2)Oc2ccccc2F)cc1 (stereo unspecified) | inactive: -5.51%
70 | Cc1ccc(OP(=O)(Nc2ccc([N+](=O)[O-])cn2)Oc2ccc(C)cc2)cc1 | inactive: 0.26%
71 | Cc1ccc2nc3c(c(C)c2c1)CC(C(Cl)Cl)S3 (stereo unspecified) | inactive: -10.1%
72 | O=[As](O)(c1ccc(O)cc1)c1ccccc1O | inactive: -5.21%
73 | C[As](=O)(O)c1cccc(C(=O)O)c1 | inactive: 2.49%
74 | COc1ccc(N/C(=N/P(=O)(N2CCOCC2)N2CCOCC2)N2CCOCC2)cc1 | inactive: -4.2%
75 | COc1cc(I)ccc1[As](=O)(O)O | inactive: 0.09%
76 | COc1ccc2nc(NP(=O)(c3ccccc3)c3ccccc3)sc2c1 | inactive: -6.15%
77 | Cc1c2c(nc3ccccc13)SC(C(Cl)Cl)C2 (stereo unspecified) | inactive: -3.5%
78 | Cc1cc(=O)[nH]c(N[N+](=O)[O-])n1 | inactive: -7.58%

Row | Compound | inhibition
79 | O=C(OC1CN2CCC1CC2)C12CC3CC(CC(C3)C1)C2 (stereo unspecified) | inactive: -11.1%
80 | CCC(C)N(CC(C)C)C(=S)SC(NC(C)=O)C(Cl)(Cl)Cl (stereo unspecified) | inactive: 0.54%
81 | CCOC(=O)c1ccc(NC(=O)C(C)(CCl)SC)cc1 (stereo unspecified) | inactive: 1.61%
82 | O=C(COc1ccccc1)OC1CN2CCC1CC2 (stereo unspecified) | inactive: -1.61%
83 | COP1(=S)c2c(C)nn(CCC#N)c2N=C(c2ccc(F)cc2)N1C (stereo unspecified) | inactive: -5.99%
84 | O=P(Nc1ccccn1)(c1cccc2ccccc12)c1cccc2ccccc12 | inactive: 1.99%
85 | Cc1cc(SC(NC=O)C(Cl)(Cl)Cl)ncn1 (stereo unspecified) | inactive: -4.65%
86 | O=[N+]([O-])c1ccc(Nc2ccc(Oc3ccc([N+](=O)[O-])cc3[N+](=O)[O-])cc2)c([N+](=O)[O-])c1 | inactive: 0.46%
87 | CCOC(=O)Nc1cccc([As](=O)(O)O)c1 | inactive: -8.17%
88 | Cc1cc(SC(NC(=O)c2ccccc2)C(Cl)(Cl)Cl)nc(C(C)C)n1 (stereo unspecified) | inactive: -10.7%
89 | CCOC(=O)Nc1ccc([As](=O)(O)O)c(O)c1 | inactive: -2.17%
90 | Nc1cccc([As](=O)(O)c2ccccc2)c1 | inactive: -6%
91 | O=P1(Nc2ccc(Br)cn2)COc2ccccc2OC1 | inactive: 0.03%
92 | Cc1ccc(OCC(=O)OC2CN3CCC2CC3)cc1 (stereo unspecified) | inactive: -7.23%
93 | O=[As](O)(c1cccs1)c1cccs1 | inactive: 4.69%
94 | O=P1(Nc2ncccn2)COc2ccccc2OC1 | inactive: 0.37%
95 | CN(C)C1(CNC(=O)c2ccc(S(C)(=O)=O)cc2)CCCCC1 | inactive: -2.25%
96 | O=C(/C=C/c1ccccc1)OC1CN2CCC1CC2 (stereo unspecified) | inactive: -4.04%
97 | CC1CCC(C(C)C)C(OP(=O)(Nc2ccccn2)c2ccccc2)C1 (stereo unspecified) | inactive: -11.7%
98 | Cc1nn(-c2ccccc2)c2c1P(=O)(N1CCOCC1)N(C)C(c1ccccc1)=N2 (stereo unspecified) | inactive: -12.5%
99 | CC(C)/C=N\N=C(\N)N[N+](=O)[O-] | inactive: -2.92%
100 | CN(C(=O)Cc1ccc(Cl)c(Cl)c1)[C@@H]1CCCC[C@H]1N1CCCC1 | inactive: -1.57%
101 | CC1(CBr)Cn2c(nc3ccccc3c2=O)S1 (stereo unspecified) | inactive: -14.3%
